Assay results published in ChEMBL document CHEMBL3886853, “Substituted 4-aminocyclohexane derivatives” (2016).

Sequences of proteins named here, by UniProt entry; tags and fusion partners are left off. A change or cut given only in a name is not applied to a line headed by its entry.
UniProt P41146: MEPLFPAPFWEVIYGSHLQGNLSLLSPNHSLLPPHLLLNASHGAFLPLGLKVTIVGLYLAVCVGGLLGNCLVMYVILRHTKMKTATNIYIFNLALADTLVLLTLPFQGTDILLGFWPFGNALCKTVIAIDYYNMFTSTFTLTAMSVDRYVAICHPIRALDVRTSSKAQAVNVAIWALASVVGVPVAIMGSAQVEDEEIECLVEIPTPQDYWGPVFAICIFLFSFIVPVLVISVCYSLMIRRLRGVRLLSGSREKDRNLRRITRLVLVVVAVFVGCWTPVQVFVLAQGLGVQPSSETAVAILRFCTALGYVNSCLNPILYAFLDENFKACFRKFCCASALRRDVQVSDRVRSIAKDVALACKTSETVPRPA
UniProt P35372, whole entry, looked up: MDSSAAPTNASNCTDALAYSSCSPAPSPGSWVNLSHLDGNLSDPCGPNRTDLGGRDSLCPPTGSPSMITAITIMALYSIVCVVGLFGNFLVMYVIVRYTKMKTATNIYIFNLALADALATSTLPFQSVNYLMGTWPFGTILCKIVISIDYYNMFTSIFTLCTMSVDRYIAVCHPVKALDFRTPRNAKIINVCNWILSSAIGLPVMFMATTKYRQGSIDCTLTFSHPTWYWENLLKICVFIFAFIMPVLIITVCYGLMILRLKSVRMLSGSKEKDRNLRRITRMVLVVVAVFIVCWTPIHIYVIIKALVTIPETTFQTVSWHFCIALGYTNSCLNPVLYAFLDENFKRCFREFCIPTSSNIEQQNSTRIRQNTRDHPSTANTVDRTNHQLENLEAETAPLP
UniProt P41145: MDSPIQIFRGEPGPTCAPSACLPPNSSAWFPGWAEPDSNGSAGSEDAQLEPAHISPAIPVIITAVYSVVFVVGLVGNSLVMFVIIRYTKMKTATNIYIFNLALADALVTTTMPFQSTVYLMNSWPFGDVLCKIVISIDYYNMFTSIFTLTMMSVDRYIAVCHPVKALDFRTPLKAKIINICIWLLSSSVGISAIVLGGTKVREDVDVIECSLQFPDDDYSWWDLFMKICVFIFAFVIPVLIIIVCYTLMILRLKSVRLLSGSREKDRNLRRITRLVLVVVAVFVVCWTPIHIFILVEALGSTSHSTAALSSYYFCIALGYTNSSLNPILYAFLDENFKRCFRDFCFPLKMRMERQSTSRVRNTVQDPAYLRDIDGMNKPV

Legend:
Nociceptin receptor = Nociceptin receptor (Homo sapiens, UniProt P41146); assay: Binding Assay: The compounds were examined with membranes of recombinant CHO-ORL 1 cells in a receptor binding assay with 3H-nociceptin/orphanin FQ. This test system was conducted in accordance with the method outlined by Ardati et al. (Mol. Pharmacol., 51, 1997, pp. 816-824). The concentration of 3H-nociceptin/orphanin FQ amounted to 0.5 nM in these tests. The binding assays were conducted in eac
Mu-type opioid receptor = Mu-type opioid receptor (Homo sapiens, UniProt P35372); assay: Binding Assay: The affinity to the human μ-opiate receptor was determined in a homogeneous preparation in microtiter plates. For this, dilution series of the respective compound to be tested were incubated for 90 minutes at room temperature with a receptor membrane preparation (15-40 mg of protein per 250 μl of incubation batch) of CHO-K 1 cells, which express the human μ-opiate receptor (RB-HOM r
[1] = target: Kappa-type opioid receptor (Homo sapiens, UniProt P41145); assay: Binding Assay: The determination occurred in a homogeneous batch in microtiter plates. For this, dilution series of the respective substances to be tested were incubated for 90 minutes at room temperature with a receptor membrane preparation (7 μg of protein per 250 μl of incubation batch) of CHO-K 1 cells, which express the human κ-opiate receptor, in the presence of 1 nmol/l of the radioactive l

CC(=O)NCC1(C)CCC(c2ccccc2)(N(C)C)CC1 (configuration not stated)
Ki (Nociceptin receptor): 1170 nM | Ki (Mu-type opioid receptor): 140 nM

CCCC(=O)OC1(c2[nH]c3ccccc3c2C)CCC(c2cccc(F)c2)(N(C)C)CC1 (configuration not stated)
Ki (Nociceptin receptor): 108 nM

CN(C)C(=O)CN(C)C1(c2ccccc2)CCC(c2ccccc2)(N(C)C)CC1 (configuration not stated)
Ki (Nociceptin receptor): 230 nM | Ki (Mu-type opioid receptor): 1420 nM and 2600 nM

CN(C)C1(CC2CCCC2)CCC(c2ccccc2)(N(C)C)CC1 (configuration not stated)
Ki (Nociceptin receptor): 89.5 nM

CN(C)C1(c2ccccc2)CCC(C(=N)c2cc3ccccc3n2C)(N2CCCC2)CC1 (configuration not stated)
Ki (Nociceptin receptor): 180 nM | Ki (Mu-type opioid receptor): 49 nM

CN(C)C1(c2ccccc2)CCC(O)(c2ccccc2)CC1 (configuration not stated)
Ki [1]: 2240 nM

CN(C)C1(c2ccccc2)CCC(c2ccccc2)(N(C)C(=O)C(c2ccccc2)c2ccccc2)CC1 (configuration not stated)
Ki (Mu-type opioid receptor): 18 nM

CN(C)C1(c2ccccc2)CCC(c2ccccc2)(N(C)C(=O)CCC(=O)O)CC1 (configuration not stated)
Ki (Mu-type opioid receptor): 9020 nM

CN(C)C1(c2ccccc2)CCC(c2ccccc2)(N(C)CCCCO)CC1 (configuration not stated)
Ki (Nociceptin receptor): 18 nM | Ki (Mu-type opioid receptor): 415 nM

CN(C)CC1(Cc2ccccc2)CCC(c2ccccc2)(N(C)C)CC1 (configuration not stated)
Ki (Nociceptin receptor): 1890 nM | Ki (Mu-type opioid receptor): 215 nM

CN(C)c1nc(N(C)C)nc(N(C)C2(c3ccccc3)CCC(c3ccccc3)(N(C)C)CC2)n1 (configuration not stated)
Ki (Nociceptin receptor): 930 nM | Ki (Mu-type opioid receptor): 255 nM

CNC1(c2[nH]c3ccccc3c2C)CCC(c2cccc(F)c2)(N(C)C)CC1 (configuration not stated)
Ki (Mu-type opioid receptor): 155 nM

CNC1(c2ccccc2)CCC(Cc2ccccc2)(CN(C)C)CC1 (configuration not stated)
Ki (Nociceptin receptor): 3960 nM | Ki (Mu-type opioid receptor): 1110 nM

Cc1c(C2(N3CCCCC3)CCC(c3ccccc3)(N(C)C)CC2)[nH]c2ccccc12 (configuration not stated)
Ki (Nociceptin receptor): 1050 nM

Cc1ccc(C2(N(C)C)CCC(O)(c3ccccc3)CC2)cc1 (configuration not stated)
Ki [1]: 1460 nM

CCNC(=O)N(C)C1(c2ccccc2)CCC(c2ccccc2)(N(C)C)CC1 (single isomer, unassigned)
Ki (Nociceptin receptor): 95.5 nM and 51 nM

CN(C)C1(C(=O)c2cc3ccccc3n2C)CCC(c2ccccc2)(N(C)C)CC1 (single isomer, unassigned)
Ki (Nociceptin receptor): 940 nM and 635 nM | Ki (Mu-type opioid receptor): 70.5 nM

CN(C)C1(Cc2ccccc2)CCC(c2ccccc2)(N(C)C)CC1 (single isomer, unassigned)
Ki (Mu-type opioid receptor): 80.5 nM and 155 nM

CN(C)C1(c2cccc(F)c2)CCC(C)(CNC(=O)/C=C/c2ccccc2)CC1 (single isomer, unassigned)
Ki (Nociceptin receptor): 1390 nM | Ki (Mu-type opioid receptor): 1.8 nM

CN(C)C1(c2cccc(F)c2)CCC(C)(CNS(=O)(=O)/C=C/c2ccccc2)CC1 (single isomer, unassigned)
Ki (Nociceptin receptor): 77.5 nM and 48.5 nM

CN(C)C1(c2ccccc2)CCC(C(=O)c2cc3ccccc3n2C)(N2CCCC2)CC1 (single isomer, unassigned)
Ki (Nociceptin receptor): 990 nM | Ki (Mu-type opioid receptor): 1160 nM

CN(C)C1(c2ccccc2)CCC(c2ccc(C(F)(F)F)cc2)(N(C)C)CC1 (single isomer, unassigned)
Ki (Nociceptin receptor): 115 nM and 165 nM

CN(C)C1(c2ccccc2)CCC(c2ccccc2)(N(C)C(=O)/C=C/c2ccccc2)CC1 (single isomer, unassigned)
Ki (Mu-type opioid receptor): 14.2 nM and 8.05 nM

CN(C)C1(c2ccccc2)CCC(c2ccccc2)(N(C)C(=O)NCc2ccccc2)CC1 (single isomer, unassigned)
Ki (Mu-type opioid receptor): 1.5 nM and 2.2 nM

CN(C)C1(c2ccccc2)CCC(c2ccccc2)(N(C)C(=O)c2cccc(C(F)(F)F)c2)CC1 (single isomer, unassigned)
Ki (Nociceptin receptor): 0.54 nM | Ki (Mu-type opioid receptor): 1.2 nM

CN(C)C1(c2ccccc2)CCC(c2ccccc2)(N(C)C)CC1 (single isomer, unassigned)
Ki (Nociceptin receptor): 6 nM | Ki (Mu-type opioid receptor): 600 nM

CN(C)C1(c2ccccc2)CCC(c2ccccc2)(N(C)CC(=O)O)CC1 (single isomer, unassigned)
Ki (Nociceptin receptor): 4010 nM | Ki (Mu-type opioid receptor): 10200 nM and 5200 nM

CN(C)C1(c2ccccc2)CCC(c2ccccc2)(N(C)CCO)CC1 (single isomer, unassigned)
Ki (Nociceptin receptor): 465 nM | Ki (Mu-type opioid receptor): 2900 nM

CN(C)C1(c2ccccc2)CCC(c2ccccc2)(N(C)Cc2cccc(F)c2)CC1 (single isomer, unassigned)
Ki (Mu-type opioid receptor): 39 nM

CN(C)C1(c2ccccc2)CCC(c2cccs2)(N(C)C)CC1 (single isomer, unassigned)
Ki (Nociceptin receptor): 25.5 nM

CN(C)CC1(c2ccccc2)CCC(c2ccccc2)(N(C)C)CC1 (single isomer, unassigned)
Ki (Nociceptin receptor): 102 nM | Ki (Mu-type opioid receptor): 2460 nM

CN(Cc1c[nH]c2ccccc12)CC1(C)CCC(c2ccccc2)(N(C)C)CC1 (single isomer, unassigned)
Ki (Nociceptin receptor): 730 nM | Ki (Mu-type opioid receptor): 385 nM

CNC1(c2ccccc2)CCC(CC2CCCC2)(N(C)C)CC1 (single isomer, unassigned)
Ki (Nociceptin receptor): 530 nM and 375 nM

CNC1(c2ccccc2)CCC(c2ccc(C(F)(F)F)cc2)(N(C)C)CC1 (single isomer, unassigned)
Ki (Nociceptin receptor): 360 nM | Ki (Mu-type opioid receptor): 1190 nM

CNC1(c2ccccc2)CCC(c2ccc(OC)cc2)(N(C)C)CC1 (single isomer, unassigned)
Ki (Nociceptin receptor): 207 nM | Ki (Mu-type opioid receptor): 650 nM

CNC1(c2ccccc2)CCC(c2ccccc2)(N(C)C)CC1 (single isomer, unassigned)
Ki (Mu-type opioid receptor): 640 nM

CNC1(c2ccccc2)CCC(c2cccs2)(N(C)C)CC1 (single isomer, unassigned)
Ki (Nociceptin receptor): 53.5 nM | Ki (Mu-type opioid receptor): 555 nM

CNc1nc(NC)nc(N(C)C2(c3ccccc3)CCC(c3ccccc3)(N(C)C)CC2)n1 (single isomer, unassigned)
Ki (Nociceptin receptor): 525 nM

CNc1nc(Oc2ccc(OC)cc2)nc(N(C)C2(c3ccccc3)CCC(c3ccccc3)(N(C)C)CC2)n1 (single isomer, unassigned)
Ki (Nociceptin receptor): 5.35 nM | Ki (Mu-type opioid receptor): 740 nM

COc1ccc(Oc2nc(Oc3ccc(OC)cc3)nc(N(C)C3(c4ccccc4)CCC(c4ccccc4)(N(C)C)CC3)n2)cc1 (single isomer, unassigned)
Ki (Nociceptin receptor): 210 nM | Ki (Mu-type opioid receptor): 2400 nM

Cc1c(C2(N(C)C)CCC(c3ccccc3)(N(C)C)CC2)[nH]c2ccc(F)cc12 (single isomer, unassigned)
Ki (Nociceptin receptor): 2050 nM | Ki (Mu-type opioid receptor): 255 nM

Cc1c(C2(N(C)C)CCC(c3ccccc3)(N(C)C)CC2)[nH]c2ccccc12 (single isomer, unassigned)
Ki (Nociceptin receptor): 993 nM | Ki (Mu-type opioid receptor): 410 nM

Cc1c(C2(N3CCCC3)CCC(c3ccccc3)(N(C)C)CC2)[nH]c2ccc(F)cc12 (single isomer, unassigned)
Ki (Nociceptin receptor): 190 nM | Ki (Mu-type opioid receptor): 1580 nM

Where “and” joins values, the source holds several entries; their conditions need not be identical. Identical values can stand only once.
